Measured affinities in a library of Ab-14 heavy chain variants

All variants were tested on one target, the spike HR2 peptide PDVDLGDISGINAS (SARS-CoV-2).

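The starting antibody came from a phage panning campaign against this peptide. Designed CDR sequences, proposed from the first random library and measured here. Several design methods are mixed in this list. In AlphaSeq, yeast of one mating type display the scFv and yeast of the other type display the target. The frequency of each diploid, read from paired DNA barcodes, reflects how well the two displayed proteins bind. Read counts were normalised to the haploid input and turned into Kd by a linear fit to BCL2-family pairs of known affinity, for each replicate. There are six technical replicates.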

Parent scFv Ab-14: VH joined to VL by a (GGGGS)3 linker. Changes lie in the heavy chain CDRs alone.
VH: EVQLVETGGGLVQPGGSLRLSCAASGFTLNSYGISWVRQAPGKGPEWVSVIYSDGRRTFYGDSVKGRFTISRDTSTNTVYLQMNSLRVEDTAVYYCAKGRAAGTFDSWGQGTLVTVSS
VL: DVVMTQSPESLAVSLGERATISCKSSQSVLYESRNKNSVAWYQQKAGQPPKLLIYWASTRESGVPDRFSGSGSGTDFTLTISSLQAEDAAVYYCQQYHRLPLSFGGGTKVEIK

The parent's heavy chain CDRs are GFTLNSYGIS, VIYSDGRRTFYGDSVK, GRAAGTFDS; each variant's own CDRs replace them letter for letter.
Values are apparent Kd, the geometric mean of the replicates that gave a signal; lower means stronger binding.
Where no diploid with the target was found in any replicate, the entry reads "nd": below detection, most likely a poor binder, though not proof of it.
The authors averaged sequences with at least three values out of six and counted those with two or fewer as poor binders.
Of ten entries with the parent sequence, four were seen in most replicates (averages 2.2 nM to 240 nM), three in one and three in none, so single entries are noisy.
Background: pairings of all heavy chain designs with three empty control strains gave a value in 1% of cases (median 120 nM, 5th percentile 7.0 nM). Values in that range, when seen in few replicates, are hard to tell from nonspecific mating. The control count says in how many pairings with the empty strains this scFv gave a signal.
Values of this round are not directly comparable with the first-round values of the same sequences.
Some sequences occur more than once in the pool; their replicates are pooled.

| Kd (apparent) | seen in | empty controls | CDR-H1 | CDR-H2 | CDR-H3 |
|---|---|---|---|---|---|
| nd | 0 of 6 | 0 of 18 | GFDFQEYGIS | VIYADGKRTAYANSVK | GGSNALTTV |
| nd | 0 of 6 | 0 of 18 | GFTLDSYGIS | VIYSDGRRTFYGDSVA | GRAAKTFDS |
| 280 pM | 6 of 6 | 0 of 18 | GFDLNEYGIS | VIYADGVRTAYVDSVK | GENAGTFDV |
| 170 nM | 4 of 6 | 0 of 18 | GFTLNDYGIS | VIYSDGRRTFYGDSVK | GREAGTFDK |
| 9.1 nM | 5 of 6 | 0 of 18 | GFDLNSYGIS | VIYSDGRRTFYGDSVK | GQIAGTFDS |
| 1.1 nM | 6 of 6 | 0 of 18 | GFDLNEYGIS | VIYADGMRTFYADSVK | GEVAGTFDL |
| 94 pM | 6 of 6 | 0 of 18 | GFDLNEYGIS | VIYADGRRTAYIDSVK | GTAAGTFDS |
| 20 nM | 1 of 6 | 0 of 18 | GFTLNSYGIS | VIYADGRRTFYGDSVK | GRAAGTNDL |
| 190 pM | 6 of 6 | 0 of 18 | GFDLNEYGIS | VIYADGMRTFYADSVK | GQEAGTFDV |
| 1.3 nM | 6 of 6 | 0 of 18 | GFSLNSYGIS | VIYSDGRRTFYADSVK | GSTAGTFDS |
| nd | 0 of 6 | 0 of 18 | GFNLDEYGIS | VIYADGTRRYYADSVK | GDYVYVNST |
| 580 nM | 3 of 6 | 0 of 18 | GAWLNEYGIS | VIYSDGRRTFYGDSVK | GRAAGTFDS |
| nd | 0 of 6 | 0 of 18 | GFDLNSYGIS | VIYSDERRTFYGDSKK | GRAAGWFNS |
| nd | 0 of 6 | 0 of 18 | LFTINSYGIS | VIYSDGRRTSYGDSVK | GRAAGTFDS |
| 7.2 nM | 6 of 6 | 2 of 18 | GFSLNSYGIS | VIYSDGRRTFYADSVK | GHAAGTFDQ |
| 1.6 nM | 6 of 6 | 0 of 18 | GFDLNSYGIS | VIYSDGRRTAYGDSVK | GRETGTFDA |
| 2.0 nM | 6 of 6 | 0 of 18 | GFDLNSYGIS | VIYSDGRRTFYGDSVK | GKEAGTFDS |
| 280 pM | 6 of 6 | 0 of 18 | GFDLNSYGIS | VIYADGRRTFYGDSVK | GRTAGTFDS |
| 180 pM | 6 of 6 | 0 of 18 | GFDLNEYGIS | VIYADGRRTAYSDSVK | GGNAGTFDL |
| 40 nM | 2 of 6 | 0 of 18 | GFTLESYGIS | VIYADGRRTFYGDSVK | GQAAGTFDC |
| 340 pM | 6 of 6 | 0 of 18 | GFDLNEYGIS | VIYADGRRTFYVDSVK | GEVAGTFNV |
| 4.2 nM | 6 of 6 | 0 of 18 | GFTLNSYGIS | VIYSDGVRKFYSDSVK | GRAAGTFDS |
| 460 pM | 6 of 6 | 1 of 18 | GFDLDEYGIS | VIYADGMRTAYADSVK | GNVAGTFDK |
| 260 pM | 6 of 6 | 0 of 18 | GFDLDEYGIS | VIYADGQRTAYSDSVK | GNVAGTFDL |
| nd | 0 of 6 | 0 of 18 | GITLNSYGIS | VIYSDGRRTFYGDSVK | GRAAGTFPS |
| nd | 0 of 6 | 0 of 18 | GFDLNSYGIS | VIYSDGRRTFYADGVK | GKAAGTFDS |
| nd | 0 of 6 | 1 of 18 | GFDLNEYGVS | VIYADGYRASYADKVK | GFNFGQDIV |
| 61 nM | 1 of 6 | 1 of 18 | GFTLNSYGIS | VIYSDGRRTFYGDSVK | GRAAGTNDA |
| 1.6 µM | 2 of 6 | 1 of 18 | GMDLEEYGIS | VIYADGLRSAYVDSVK | GGVGDYDFV |
| 4.1 nM | 6 of 6 | 0 of 18 | GFELNEYGIS | VIYSDGRRTFYGDSVK | GRLAGTFDT |
| 3.4 nM | 6 of 6 | 0 of 18 | GFGLNEYGIS | VIYSDGRRTFYHDSVK | GRAAGTFDN |
| nd | 0 of 6 | 0 of 18 | GFTLNEYGIS | VIYSDGRRTFYGDSVK | GRAAGTFIQ |
| 36 nM | 2 of 6 | 0 of 18 | GFDLNSYGIS | VIYSDGRRTFYGDSVK | GRATGTFDS |
| 1.5 nM | 6 of 6 | 0 of 18 | GFSLNSYGIS | VIYSDGRRTFYGDNVK | GITAGTFDS |
| 220 pM | 6 of 6 | 1 of 18 | GFDLNEYGIS | VIYADGQRTFYADSVK | GNVAGTFDV |
| 740 pM | 6 of 6 | 1 of 18 | GFDLNEYGIS | VIYADGRRTFYSDSVK | GEIAGTFDL |
| nd | 0 of 6 | 0 of 18 | GFTLNSYGIS | VIYSDGRRTFYGDNVK | GQAALTKNS |
| 450 pM | 6 of 6 | 0 of 18 | GFDLNEYGIS | VIYADGKRTAYADDVK | GNQAGTFDT |
| 2.1 µM | 5 of 6 | 0 of 18 | GFTLNEYGIS | VIYSDGRRTFYDDSVK | GRWASTFDS |
| 610 pM | 6 of 6 | 2 of 18 | GFSLNDYGIS | VIYSDGRRTFYTDSVK | GRQAGTFDS |
| 100 nM | 1 of 6 | 0 of 18 | GKDIDEYGIS | VIYADGIRTFYNDRVK | GNLGGQFDM |
| nd | 0 of 6 | 0 of 18 | GFWLNSYGIS | VIYSDGRRIFDGDSVK | GRAAGQFDS |
| 15 nM | 5 of 6 | 0 of 18 | GFTLERYGIS | VIYSDGRRTFYGDSVK | GRAAGTFDS |
| 280 pM | 6 of 6 | 0 of 18 | GFDLNEYGIS | VIYADGRRTAYADSVK | GKVAGTFDV |
| nd | 0 of 6 | 0 of 18 | GFELNSYGIS | VIYSDGWRTFYVDSFK | GRAAGTFDS |
| nd | 0 of 6 | 0 of 18 | GFQLNEYGIS | VIYSDGRRTFYGDSVK | GRMAGTFIS |
| 120 nM | 1 of 6 | 0 of 18 | GFTLNSYQIS | VIYSDGRRTFYGDSVK | GEYAGTFDS |
| 250 pM | 6 of 6 | 1 of 18 | GFDLNEYGIS | VIYADGRRTFYSDSVK | GQVAGTFDV |
| nd | 0 of 6 | 0 of 18 | GFTLNDYGIS | VIYSDGRRTFYGDSVK | GRAAGTFVI |
| nd | 0 of 6 | 0 of 18 | GFDLEEYGVS | VIYADGHRTAYSDNVK | GVESASIQN |
| 1.6 nM | 5 of 6 | 0 of 18 | GFDLNEYGIS | VIYADGMRTAYTDSVK | GNLAGTFDV |
| 13 nM | 4 of 6 | 0 of 18 | GFTLNSYGIS | VIYSDGRRTFYSDSVK | GKMAGTFDT |
| 3.7 nM | 6 of 6 | 1 of 18 | GFTLNSYGIS | VIYSDGVRTFYDDSVK | GQLAGTFDS |
| 1.3 nM | 6 of 6 | 0 of 18 | GFDLNEYGIS | VIYADGQRTAYADSVK | GNNAGTFDV |
| 710 pM | 6 of 6 | 0 of 18 | GFDLNEYGIS | VIYADGQRTSYADSVK | GNQAGTFDV |
| 630 pM | 6 of 6 | 0 of 18 | GFDLNEYGIS | VIYADGMRTYYTDSVK | GENAGTFDV |
| 93 pM | 6 of 6 | 0 of 18 | GFDLNEYGIS | VIYADGMRTFYSDSVK | GNVAGTFDK |
| nd | 0 of 6 | 0 of 18 | GGDLNEYGIS | VIYADGNRKNYIDNVK | GQNGDVLNI |
| 1.5 nM | 6 of 6 | 0 of 18 | GFNLNEYGIS | VIYSDGRRTQYIDSVK | GRAAGTFDS |
| nd | 0 of 6 | 0 of 18 | GFGLDEYGIS | VIYADGMRSNYANSVK | GYQAGVISV |
| nd | 0 of 6 | 0 of 18 | GFGLDEYGIH | VIYADGMRSNYANSVK | GHQAGVIVV |
| 32 nM | 6 of 6 | 1 of 18 | GFFLNSYGIS | VIYSDGRRTFYGDSVK | GKEAGTFDT |
| 510 pM | 6 of 6 | 0 of 18 | GFQLNEYGIS | VIYADGRRTFYADNVK | GNVAGTFDQ |
| 5.8 nM | 6 of 6 | 1 of 18 | GFDLNEYGIS | VIYADGRRTAYDDSVK | GQVAGTFDA |
| 1.0 nM | 12 of 12 | 1 of 36 | GFTLNEYGIS | VIYSDGRRTFYGDSVK | GRVAGTFDS |
| 27 nM | 5 of 6 | 0 of 18 | GFDLNSYGIS | VIYSDGRRTFYDDMVK | GKAAGTFDS |
| 280 pM | 6 of 6 | 0 of 18 | GFDLNEYGIS | VIYADGMRTAYVDDVK | GNNAGTFDV |
| 280 pM | 6 of 6 | 1 of 18 | GFDLDEYGIS | VIYADGQRTAYADSVK | GENAGTFDI |

A selection of 11 entries from above:

{"CDR-H1": "LFTINSYGIS", "CDR-H2": "VIYSDGRRTSYGDSVK", "CDR-H3": "GRAAGTFDS", "Kd (apparent)": "nd", "seen in": "0 of 6", "empty controls": "0 of 18"}
{"CDR-H1": "GMDLEEYGIS", "CDR-H2": "VIYADGLRSAYVDSVK", "CDR-H3": "GGVGDYDFV", "Kd (apparent)": "1.6 µM", "seen in": "2 of 6", "empty controls": "1 of 18"}
{"CDR-H1": "GFELNEYGIS", "CDR-H2": "VIYSDGRRTFYGDSVK", "CDR-H3": "GRLAGTFDT", "Kd (apparent)": "4.1 nM", "seen in": "6 of 6", "empty controls": "0 of 18"}
{"CDR-H1": "GFTLNSYGIS", "CDR-H2": "VIYADGRRTFYGDSVK", "CDR-H3": "GRAAGTNDL", "Kd (apparent)": "20 nM", "seen in": "1 of 6", "empty controls": "0 of 18"}
{"CDR-H1": "GFDLNEYGIS", "CDR-H2": "VIYADGQRTSYADSVK", "CDR-H3": "GNQAGTFDV", "Kd (apparent)": "710 pM", "seen in": "6 of 6", "empty controls": "0 of 18"}
{"CDR-H1": "GFDLNEYGIS", "CDR-H2": "VIYADGVRTAYVDSVK", "CDR-H3": "GENAGTFDV", "Kd (apparent)": "280 pM", "seen in": "6 of 6", "empty controls": "0 of 18"}
{"CDR-H1": "GFWLNSYGIS", "CDR-H2": "VIYSDGRRIFDGDSVK", "CDR-H3": "GRAAGQFDS", "Kd (apparent)": "nd", "seen in": "0 of 6", "empty controls": "0 of 18"}
{"CDR-H1": "GFDLNEYGIS", "CDR-H2": "VIYADGRRTAYDDSVK", "CDR-H3": "GQVAGTFDA", "Kd (apparent)": "5.8 nM", "seen in": "6 of 6", "empty controls": "1 of 18"}
{"CDR-H1": "GFDLNEYGVS", "CDR-H2": "VIYADGYRASYADKVK", "CDR-H3": "GFNFGQDIV", "Kd (apparent)": "nd", "seen in": "0 of 6", "empty controls": "1 of 18"}
{"CDR-H1": "GFQLNEYGIS", "CDR-H2": "VIYSDGRRTFYGDSVK", "CDR-H3": "GRMAGTFIS", "Kd (apparent)": "nd", "seen in": "0 of 6", "empty controls": "0 of 18"}
{"CDR-H1": "GFTLNSYQIS", "CDR-H2": "VIYSDGRRTFYGDSVK", "CDR-H3": "GEYAGTFDS", "Kd (apparent)": "120 nM", "seen in": "1 of 6", "empty controls": "0 of 18"}

Values reported by Li et al. 2023, doi:10.1038/s41467-023-39022-2 (FLAb copy).